# Measured values published in patent publication US20250127887A1 (priority 2021, published 2025).
# System: OT-II cells
# Assay: In vitro induction of regulatory T cells by tolerance vaccine formulations in co-culture of CD11c+ APCs and OT-II cells, flow cytometry
# Assay type: cell-based
compound,measurement,setting,value
"CCCCc1nc2c(N)nc3ccccc3c2n1Cc1ccc(CN)cc1 [Compound 2BXy, 1-(4-(aminomethyl)benzyl)-2-butyl-1H-imidazo[4,5-c]quinolin-4-amine]",proportion of Tregs induced,"immunostimulant in combination with rapamycin, vs all other groups that included rapamycin",significantly lower than all other groups that included rapamycin
same,number of regulatory T cells induced,"immunostimulant in vaccine formulations with the inhibitor Torin 1, FIG. 26",signigicantly higher number of regulatory T cells
